Molecules are shown by their SMILES.

By UniProt entry, the sequences of proteins in these tests, tags left out. Where a name states a change or a piece, a line headed by the entry shows the natural chain unless it says otherwise.
UniProt O75676: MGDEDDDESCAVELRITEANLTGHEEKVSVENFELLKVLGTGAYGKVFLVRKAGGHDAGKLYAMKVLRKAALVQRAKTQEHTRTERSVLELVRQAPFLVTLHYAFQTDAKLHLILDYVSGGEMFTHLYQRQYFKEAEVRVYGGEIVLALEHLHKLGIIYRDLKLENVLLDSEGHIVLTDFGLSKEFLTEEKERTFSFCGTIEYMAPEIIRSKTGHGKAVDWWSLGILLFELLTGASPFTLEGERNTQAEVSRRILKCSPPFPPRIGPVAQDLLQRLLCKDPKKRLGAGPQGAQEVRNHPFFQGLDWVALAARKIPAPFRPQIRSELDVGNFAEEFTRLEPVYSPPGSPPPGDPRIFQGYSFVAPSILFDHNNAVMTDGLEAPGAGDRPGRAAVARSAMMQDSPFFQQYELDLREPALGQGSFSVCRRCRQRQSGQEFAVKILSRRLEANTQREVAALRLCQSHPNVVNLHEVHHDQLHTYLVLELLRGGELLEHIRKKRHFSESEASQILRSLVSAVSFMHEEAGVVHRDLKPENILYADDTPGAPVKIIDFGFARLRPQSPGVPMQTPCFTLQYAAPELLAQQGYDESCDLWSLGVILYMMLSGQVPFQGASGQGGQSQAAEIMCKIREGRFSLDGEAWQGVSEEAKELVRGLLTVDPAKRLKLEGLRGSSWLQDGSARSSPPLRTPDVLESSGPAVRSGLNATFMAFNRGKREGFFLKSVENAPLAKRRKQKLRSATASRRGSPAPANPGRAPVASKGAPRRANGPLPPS

This note sets out measurements from ChEMBL document CHEMBL4507272, “Data for DCP probe BAY-678” (2021).

The target in one assay is T1, Neutrophil elastase (Homo sapiens, UniProt P08246).
T1 sequence (P08246 whole entry): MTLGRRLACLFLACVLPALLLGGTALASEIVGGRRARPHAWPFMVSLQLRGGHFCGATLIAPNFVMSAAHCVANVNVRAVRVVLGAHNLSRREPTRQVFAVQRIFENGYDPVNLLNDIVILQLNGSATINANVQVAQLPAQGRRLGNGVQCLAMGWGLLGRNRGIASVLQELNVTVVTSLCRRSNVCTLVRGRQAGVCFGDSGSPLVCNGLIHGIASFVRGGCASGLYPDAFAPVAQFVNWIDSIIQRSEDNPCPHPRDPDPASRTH

For assay [1], the target named is Ribosomal protein S6 kinase alpha-4 (Homo sapiens) (UniProt O75676). The following applies: Compound concentration 1000.0 nM.

Broadly, the IC50 is the point on the concentration scale where inhibition reaches its midpoint. A higher IC50 goes with lower potency. Regarding `CC(=O)C1=C(C)N(c2cccc(C(F)(F)F)c2)C(=O)N[C@H]1c1ccc(C#N)nc1` [BAY-677], the 50% inhibitory concentration (IC50) on Neutrophil elastase is > 2000 nM (not active).

As usually defined, the residual activity is the signal under treatment as a percentage of the control signal. In the case of `CC(=O)C1=C(C)N(c2cccc(C(F)(F)F)c2)C(=O)N[C@@H]1c1ccc(C#N)nc1` [BAY-678], in assay [1], the residual activity is 33.5%.
